From patent US9333195B2 (priority 1999, dated 2016)

Target: human muscarinic receptors Hm3 (Homo sapiens (Human), UniProt P20309)
Details: read-out: BINDING TO RECEPTOR M3 (IC50 nM)

Question: With `CC(C)[N+]1(C)[C@@H]2CC[C@H]1C[C@@H](OC(=O)C(CO)c1ccccc1)C2` (stereo partly shown) [IPRATROPIUM, reference compound] as the compound, how does the IC50 read?
Answer: 3 nM
